The text below walks through data of patent US20210355421A1, “DEVICES AND METHODS FOR PRODUCTION OF CELL AGGREGATES” (priority 2007, published 2021).

The data set relates to hESC. In words: aggregate formation from hESC cultured on Matrigel after BMP pre-differentiation. Conditions: 25 ng/mL BMP2 pre-differentiation, control population did not form aggregates. It is filed as cell-based, human. As to the method:
• 1. […] The applicants have determined several ways in which this problem can be resolved (alone or in combination): • a) for 48 hours prior to harvesting, replace growth medium with DM (above); or • b) for 48 hours prior to harvesting, replace growth medium with X-Vivo10+25 ng/mL BMP2; or • c) when passaging cells, keep initial colony sizes small and consistent, decrease initial seeding density, and harvest the culture well before confluency is reached or • d) form aggregates in the presence of 10 μM Y27632 • If cells are excessively pre-differentiated using techniques a-c, highly coherent aggregates are formed however they are then resistant to release from the wells in which they are aggregated, and their subsequent differentiation trajectory may also be affected. The precise degree of pre-differentiation that is optimal will vary with the cell line in question, exact maintenance techniques, etc. If EB coherence is still insufficient after treatment as above, pre-differentiation can be started earlier (i.e the duration increased) or (if using BMPs), BMP concentration can be increased. If highly coherent aggregates result but are not efficiently recovered from the plate in which they are formed, the duration of pre-differentiation can be reduced, or (if using BMP2) the concentration of BMP2 can be reduced. • 2. […]

“BMP2: Bone Morphogenetic Protein-2, growth factor used for pre-differentiation (R&D Systems)”: the “stable aggregate formation after BMP2 pre-differentiation” value is “Aggregates formed from the pre-differentiated population”.
